Data on 25 molecules can be found in PubChem BioAssay AID1049 (The Scripps Research Institute Molecular Screening Center, 2008).

The entries are a selection whose mix differs from that of the whole data set. The source made the active and inactive calls. Rule as the data show it: active = TR-FRET ratio above about 2000; inactive = the rest.

The nature of this assay: detection-format interference in TR-FRET ratio – biochemical, artefact control for PPARgamma SRC-2 agonist project, primary screen (AID 1049). The following applies: TR-FRET artefact counter-screen; at 8 µM; stronger effect = higher value.
As to `CCOc1ncccc1C(=O)NCC1(N2CCOCC2)CCCCC1`, the TR-FRET ratio was inactive: 1420.

Take `CC(C)(C)OC(=O)N1CCC(Nc2ccccc2)CC1`: the TR-FRET ratio was inactive: 1380.

Regarding `CCC(CO)(C(=O)OC1CN2CCC1CC2)c1ccccc1` (stereo not given), the TR-FRET ratio was inactive: 1260.

For the molecule `COc1cc(OC)cc(C(=O)NCC2(N3CCOCC3)CCCCC2)c1`, the TR-FRET ratio was inactive: 1520.

Consider `CCN1CCC(Nc2cccc(F)c2)CC1`, for which the TR-FRET ratio was inactive: 1630.

For `CN(C)c1ccc(C(=O)NCC2(N3CCCCC3)CCCCC2)cc1`, the TR-FRET ratio was inactive: 1510.

Turning to `N#Cc1ccc(C(=O)NCC2(N3CCCCC3)CCCCC2)cc1`, the TR-FRET ratio was inactive: 1650.

For `c1ccc(CN2CCC(Nc3ccccc3)CC2)cc1`, the TR-FRET ratio was inactive: 1470.

Take `COc1ccc(C(=O)NCC2(N3CCOCC3)CCCCC2)cc1OC`: the TR-FRET ratio is inactive: 1540.

As to `N/C(=N\O)c1c(N)no[n+]1[O-]`, the TR-FRET ratio is inactive: 1700.

Regarding `O=C(OC1CN2CCC1CC2)C1c2ccccc2C=Cc2ccccc21` (stereo not given), the TR-FRET ratio was inactive: 1490.

As for `COc1ccc(CN(CCCl)CCCl)cc1Cl`, the TR-FRET ratio is inactive: 1500.

Consider `CN(C)c1cccc(C(=O)NCC2(N3CCCCC3)CCCCC2)c1`, for which the TR-FRET ratio was inactive: 1340.

Regarding `CC(C)c1ccc(NC2CCN(C(=O)OC(C)(C)C)CC2)cc1`, the TR-FRET ratio was inactive: 1480.

For `CN1CCC(Nc2cccc(F)c2)CC1`, the TR-FRET ratio was inactive: 1610.

In the case of `O=C(NCC1(N2CCCCC2)CCCCC1)c1cccc([N+](=O)[O-])c1`, the TR-FRET ratio was inactive: 1530.

Consider `N#CC1(Nc2ccccc2)CCN(CCc2ccccc2)CC1`, for which the TR-FRET ratio was inactive: 1470.

Turning to `COc1ccc(NC2CCN(C(=O)OC(C)(C)C)CC2)cc1`, the TR-FRET ratio was inactive: 1470.

As to `CN1CCN(CCOC(=O)C(O)(c2ccccc2)c2ccccc2)CC1`, the TR-FRET ratio was inactive: 1450.

For `O=C(NCC1(N2CCOCC2)CCCCC1)c1cc(=O)[nH]c2ccccc12`, the TR-FRET ratio is inactive: 1410.

Consider `COc1ccc(NC2CCN(CCc3ccccc3)CC2)c(OC)c1`, for which the TR-FRET ratio was inactive: 1610.

Regarding `COc1ccc(C(=O)NCC2(N3CCCCC3)CCCCC2)c(OC)c1OC`, the TR-FRET ratio was inactive: 1570.

On to `O=C(NCC1(N2CCOCC2)CCCCC1)c1cc2ccccc2o1`, for which the TR-FRET ratio was inactive: 1350.

With `CCOC(=O)N1CCC(Nc2ccc(OC)cc2)CC1`, the TR-FRET ratio was inactive: 1460.

With `O=C(OC1CN2CCC1CC2)C1c2ccccc2Oc2ccccc21` (stereo not given), the TR-FRET ratio was inactive: 1680.
